In publication PMC6017931, “A Novel Class of Schistosoma mansoni Histone Deacetylase 8 (HDAC8) Inhibitors Identified by Structure-Based Virtual Screening and In Vitro Testing” (Molecules : A Journal of Synthetic Chemistry and Natural …, 2018):

Target: T1, smHDAC8 (Schistosoma mansoni, UniProt A5H660)
T1 construct: made in house; host or cells: E. coli
T1 sequence (A5H660 1-440): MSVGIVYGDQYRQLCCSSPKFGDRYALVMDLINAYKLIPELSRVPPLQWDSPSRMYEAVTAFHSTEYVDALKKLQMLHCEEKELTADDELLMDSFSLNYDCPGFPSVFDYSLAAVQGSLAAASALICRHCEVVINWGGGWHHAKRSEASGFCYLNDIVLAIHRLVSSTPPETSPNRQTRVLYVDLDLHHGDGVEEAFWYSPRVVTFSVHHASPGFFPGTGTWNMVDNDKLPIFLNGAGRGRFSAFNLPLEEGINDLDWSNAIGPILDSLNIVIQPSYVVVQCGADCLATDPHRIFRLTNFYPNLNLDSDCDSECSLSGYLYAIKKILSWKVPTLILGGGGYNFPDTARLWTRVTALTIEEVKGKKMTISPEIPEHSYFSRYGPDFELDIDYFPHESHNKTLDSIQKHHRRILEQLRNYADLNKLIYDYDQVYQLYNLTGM
Experiment: smHDAC8 in vitro inhibition assay
Type: biochemical
Conditions: mean ± S.E.; Fluor de Lys-HDAC8 substrate 50 µM, 90 min at 37 °C
Protocol: The biological assay was carried out using purified smHDAC8 protein and the small molecule substrate Z(Tfa)Lys-AMC (ZMTFAL) as previously reported. To assess the selectivity, the selected compounds were further tested against the human orthologue hsHDAC8 as well as the major human HDAC isoforms (HDAC1 and -6) using an established in vitro assay.
Recombinant human HDAC1 and HDAC6 were purchased from BPS Bioscience. Recombinant human HDAC8 was expressed and purified as previously described. Recombinant smHDAC8 enzyme was produced in E. coli cells and purified by a method previously described by us. Inhibition assays of smHDAC8 and human HDACs were performed as already described in previous publications. Briefly, the commercial Fluor de Lys kit (BML-KI178) was used for testing inhibition of smHDAC8 and hsHDAC8. Test compounds, Fluor de Lys-HDAC8 substrate (50 µM) and enzyme were incubated for 90 min at 37 °C with subsequent addition of 50 μL Developer II (BML-KI176) and further incubation for 45 min at 30 °C. Fluorescence was measured in a plate reader (BMG Polarstar) with excitation at λ = 390 nm and emission at λ = 460 nm. Inhibition tests of human HDAC1 and 6 were conducted using ZMAL (Cbz-(Ac)Lys-AMC) as substrate and trypsin as a developer. […] Fluorescence was measured similarly as mentioned above. IC50 values were determined with OriginPro (version 9.0.0, Northampton, MA, USA). […]

IC50: 1.56 ± 0.2 µM
Compound: O=C(CCCCCCC(=O)Nc1ccccc1)NO [SAHA, reference compound]
